The subject of experiment [1] is RBL-2H3 cells. The experiment is described as follows: IgE-induced Beta-hexosaminidase secretion in RBL-2H3 cells. Format: cell-based. Particulars: Rattus norvegicus, RBL-2H3, read-out: IC50, IgE-induced Beta-hexosaminidase secretion.
Experiment [2] deals with Bone marrow mast cells (BMMCs). The experiment is described as follows: IgE-induced LAT phosphorylation in bone marrow mast cells. Format: cell-based, mice. To be noted: Mus musculus, BMMC, read-out: IC50, IgE-induced LAT phosphorylation.

Experimental findings from US10052330B2, “Substituted pyrido[3,4-b]pyrazines as Syk inhibitors” (HUTCHISON MEDIPHARMA LIMITED, priority 2011, dated 2018) are described below.

For `N#Cc1cc(-c2cc3nccnc3c(NC[C@@H]3CNCCO3)n2)ccc1N1CCOCC1` [Compound 213], the IC50 in experiment [1] lay in the range of 1 to 100 nM.
On to `Clc1cc(-c2cc3nccnc3c(NC[C@@H]3CNCCO3)n2)ccc1N1CCOCC1` [Compound 134], for which the IC50 lay within 100 to 1000 nM in experiment [2] and 1 to 100 nM in experiment [1].
